From paper PMC6166128, “Histone H2A‐H2B binding by Pol α in the eukaryotic replisome contributes to the maintenance of repressive chromatin” (The EMBO Journal, 2018)

Target: recombinant human H2A-H2B dimer (human, UniProt P0C0S8 1-130; Q96A08 1-127)
Assay: ITC; 80 μM POLA1-NTD fragment injected into 10 μM H2A-H2B dimer in the cell; 25°C; 20 mM Tris-HCl pH 8.0, 150 mM NaCl, 5% glycerol, 0.005% Tween 20; single-site binding model
Conditions: both partners purified

B1: human POLA1 N-terminal domain (HsPOLA1-NTD, residues M1 to G110) with C-terminal Twin-Strep tag (domain or fragment, UniProt P09884 1-110, looked up)
chain: MAPVHGDDSLSDSGSFVSSRARREKKSKKGRQEALERLKKAKAGEKYKYEVEDFTGVYEEVDEEQYSKLVQARQDDDWIVDDDGIGYVEDGREIFDDDLEDDALDADEKG
notes: POLA1, polymerase subunit of Pol alpha, human; residues M1 to G110; also called HsPOLA1NTD-Twin-Strep; Pol1-NTD; source: E. coli Rosetta2 (DE3), purified (Ni-NTA, SEC, PreScission cleavage); not shown: 8His-MBP, N-terminal, cleaved; Twin-Strep, C-terminal, kept
  Kd: 19 nM
  stoichiometry N: 1
